Source: ChEMBL document CHEMBL5096224, “First-in-Class Dual Mechanism Ferroptosis-HDAC Inhibitor Hybrids” (J Med Chem, 2022)

Experiments:
Experiment in all cases: cells
[1] = tested on: HCT-116; conditions: Homo sapiens, HCT-116, 0.5 h
[2] = tested on: NCI-H522; conditions: Homo sapiens, NCI-H522, 0.5 h
[3] = tested on: HCT-116; conditions: Homo sapiens, HCT-116, 72 h
[4] = tested on: NCI-H522; conditions: Homo sapiens, NCI-H522, 72 h

SMILES	IC50 [1]	IC50 [2]	IC50 [3]	IC50 [4]
C#Cc1nc(/C=C/C=C/C(=O)NO)cs1	5.43 µM	0.52 µM	–	–
C#Cc1nc(C=CCCCCCC(=O)O)cs1	–	–	> 40 µM	–
C#Cc1nc(C2=C(C)[C@@H](O)CC2)cs1	–	–	–	5.62 µM
C#Cc1nc(/C=C/C(=O)OC)cs1	–	–	13.7 µM	2.29 µM
C#Cc1nc(/C=C/C(=O)NO)cs1	5.16 µM	0.79 µM	–	–
C#Cc1nc(C(=O)NCCCCCCC(=O)OC)cs1	–	–	–	3.33 µM
C#Cc1nc(/C=C/C=C/C(=O)OC)cs1	–	–	–	2.8 µM
C#Cc1nc(/C=C\CCCCCC(=O)OCC)cs1	–	–	–	7.33 µM
C#Cc1nc(/C=C/CCCCCC(=O)OCC)cs1	–	–	33 µM	15.7 µM
C#Cc1nc(C(=O)NCCCCCCC(=O)NO)cs1	0.61 µM	–	–	–
